Values quoted from earlier work as cited in US6641838B2, “Effervescent drug delivery system for oral administration” (Cima Labs Inc., priority 1998, dated 2003).

Conditions: in vivo, po

Methyldopa
range of bioavailability (inter- and intrasubject variability): 8-62%
